The values that follow come from patent US20150018665A1, “MOLECULAR AND CELLULAR IMAGING USING ENGINEERED HEMODYNAMIC RESPONSES” (Massachusetts Institute of Technology, priority 2013, published 2015).

Chains of the proteins cited; added tags and fusions are not shown. Residues count along the entry.
UniProt O60894, 27-148: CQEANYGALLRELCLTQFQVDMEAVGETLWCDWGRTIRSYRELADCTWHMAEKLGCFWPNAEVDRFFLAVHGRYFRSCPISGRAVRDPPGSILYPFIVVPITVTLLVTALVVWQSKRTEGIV
UniProt Q16602, 23-461: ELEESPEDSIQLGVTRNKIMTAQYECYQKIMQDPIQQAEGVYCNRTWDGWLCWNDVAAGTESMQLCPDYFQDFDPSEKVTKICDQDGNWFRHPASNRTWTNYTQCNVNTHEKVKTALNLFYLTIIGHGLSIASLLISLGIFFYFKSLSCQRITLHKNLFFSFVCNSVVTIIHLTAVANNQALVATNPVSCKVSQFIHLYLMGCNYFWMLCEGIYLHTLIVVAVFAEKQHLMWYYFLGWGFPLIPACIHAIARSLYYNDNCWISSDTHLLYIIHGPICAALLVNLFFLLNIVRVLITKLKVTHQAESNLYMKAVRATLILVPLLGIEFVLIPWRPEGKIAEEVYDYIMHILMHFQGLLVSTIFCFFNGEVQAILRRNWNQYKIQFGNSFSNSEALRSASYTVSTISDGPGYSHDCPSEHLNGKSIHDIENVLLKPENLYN

In one test the test system is exposed rat cortex. The test is described as follows: Optical imaging of exposed cortex during CGRP infusion (cranial window). The class given is in vivo. To be noted: infusion to exposed rat cortex, cranial window preparation. An excerpt: (§1) Control infusion of cerebrospinal fluid on the right side produced no significant changes; group data (n=4) are quantified in FIG. 3D.

Test [1] relates to brain vasculature. The settings on record: intravenously injected, intact BBB; cited from earlier work.
The subject of the next test is intracerebral arterioles. The settings on record: cited from earlier work.
Test [2] relates to brain vasculature. The test is described as follows: MRI of hemodynamic response to CGRP in the brains of live animals. The class given is in vivo, rat. As to the method: as §1
In some embodiments, this molecular imaging approach is referred to as “engineered hemodynamic” contrast. In some embodiments, the approach is useful for ultrasensitive imaging both in TBI and in other diseases associated with BBB dysfunction.
Efficacy for imaging BBB leakage in TBI is tested using rats subjected to pressure shocks in a blast tube shown to simulate IED exposure in humans. This fully validated model enables sublethal blasts with quantitatively controlled pressure waveforms to be reproducibly administered with 100% survival of subjects. […] Data is transformed and processed in Matlab, using analysis routines already established for evaluation of hemodynamic responses.

Test [3] addresses T1, heterodimeric CGRP receptor, comprised of human CALCRL and RAMP1 (Homo sapiens, UniProt O60894+Q16602).
T1 construct: expressed in transfected cells; host or cells: HEK293FT (lentiviral transduction, antibiotic selection)
The test is described as follows: Cell-based bioassay of CGRP receptor activation (HEK293FT CGRP reporter cells, cAMP-dependent luciferase). An excerpt: HEK293FT cell lines carrying the following lentiviral constructs were used:
Glo22F is a gene, offered by Promega Corp., encoding an engineered luciferase whose activity is allosterically modulated by cyclic AMP (Fan et al. “Novel Genetically Encoded Biosensors Using Firefly Luciferase”. ACS Chem. Biol., 2008, 3 (6), pp 346-351 DOI: 10.1021/cb8000414). This luminescent cAMP reporter system offers relatively fast readouts from live cells and strong signal-to-noise ratio.

Where two headings read alike, the source gives them in different places.

In the case of “ACDTATCVTHRLAGLLSRSGGVVKNNFVPTNVGSKAF [CGRP, synthetic CGRP from Sigma]”, in the test with exposed rat cortex, the optical imaging changes result was “detected”. In addition, the “vasodilatory effect in the brain vasculature” value in the test with brain vasculature [1] is on record as “no detectable vasodilatory effect”. Further, the EC50 in the test with intracerebral arterioles (intracerebral arterioles, read-out: 50%-effective concentration (EC50) for vasodilation) is less than 10 nM; with intracerebral arterioles (read-out: concentration of half-maximal effect (vasodilator)) it was less than 10 nM. Besides, the MRI signal change result in the test with brain vasculature [2] (100 nM infusion through cannula in left hemisphere, FIG. 3C, Example 1) is given as “significant signal change”; in the test on brain vasculature [2] (500 nM infusion through cannula in left hemisphere, FIG. 3C legend) it was “significant signal change”. Moreover, in the test on brain vasculature [2] (delivered intravascularly to animals with perturbed BBB), the “signal changes, intravascular delivery with perturbed BBB” value is “analogous signal changes”. Besides, the “dynamic MRI signal changes” value in the test with brain vasculature [2] (intracranial infusion of 0.1 μM peptide solution) is “several percent”. The “contrast in MRI” value with brain vasculature [2] (intracranial injection, nanomolar-scale concentrations) is reported as “detectable contrast”. The “contrast in MRI, intravascular administration” value in the test with brain vasculature [2] (intravascular administration) is reported as “no contrast is induced”. Besides, the “signal changes after peripheral injection” value with brain vasculature [2] (peripherally injected into tail vein) is on record as “no detectable signal changes”.

As to “CGRP-Gly: human alpha CGRP extended with a single glycine residue in lieu of C-terminal amidation (SEQ ID NO: 15) (ACDTATCVTHRLAGLLSRSGGVVKNNFVPTNVGSKAFG; haCGRP-Gly)”, in test [3] (FIG. 4C, 4D), the “effect of terminal modification on potency (in words)” value is reported as “partially restores potency”. In addition, in test [3] (cell culture), the “activation of the CGRP receptor” value is “fully activates” and the “potency of CGRP receptor activation” value was “nanomolar”.
